Assay results reported in the CheMixHub viscosity set.

Test: xn = mol fraction of the nth substance listed

OCCOCCOCCOCCO + O
viscosity [mPa·s]
Conditions | 293.15 K | 298.15 K | 303.15 K | 308.15 K | 313.15 K | 318.15 K | 323.15 K
100 kPa, x1 = 0.0061 | – | 0.97 | 0.81 | 0.77 | 0.69 | 0.62 | 0.58
100 kPa, x1 = 0.0128 | – | 1.34 | 1.09 | 1 | 0.9 | 0.81 | 0.7
100 kPa, x1 = 0.0202 | – | 1.83 | 1.43 | 1.28 | 1.15 | 1.04 | 0.85
100 kPa, x1 = 0.0283 | – | 2.2 | 1.84 | 1.62 | 1.44 | 1.29 | 1.02
100 kPa, x1 = 0.0374 | – | 2.79 | 2.32 | 2.02 | 1.79 | 1.59 | 1.28
100 kPa, x1 = 0.0476 | – | 3.49 | 2.91 | 2.49 | 2.19 | 1.94 | 1.58
100 kPa, x1 = 0.0591 | – | 4.33 | 3.61 | 3.07 | 2.67 | 2.35 | 1.86
100 kPa, x1 = 0.0722 | – | 5.35 | 4.46 | 3.75 | 3.24 | 2.83 | 2.31
100 kPa, x1 = 0.0871 | – | 6.59 | 5.49 | 4.58 | 3.92 | 3.4 | 2.76
100 kPa, x1 = 0.1045 | – | 8.09 | 6.74 | 5.59 | 4.74 | 4.07 | 3.47
100 kPa, x1 = 0.1248 | – | 9.92 | 8.27 | 6.81 | 5.72 | 4.87 | 4.13
100 kPa, x1 = 0.1489 | – | 12.16 | 10.13 | 8.3 | 6.9 | 5.83 | 4.92
100 kPa, x1 = 0.1781 | – | 14.89 | 12.41 | 10.1 | 8.33 | 6.98 | 5.86
100 kPa, x1 = 0.2139 | – | 18.9 | 15.17 | 12.28 | 10.05 | 8.35 | 6.98
100 kPa, x1 = 0.2592 | – | 23.17 | 18.47 | 14.87 | 12.08 | 9.97 | 8.3
100 kPa, x1 = 0.3182 | – | 27.77 | 22.31 | 17.86 | 14.41 | 11.81 | 9.81
100 kPa, x1 = 0.398 | – | 33.45 | 26.46 | 21.06 | 16.91 | 13.79 | 11.44
100 kPa, x1 = 0.5122 | – | 38.36 | 30.3 | 23.98 | 19.23 | 15.65 | 12.98
100 kPa, x1 = 0.6374 | – | 41.26 | 32.15 | 25.12 | 20.46 | 16.68 | 13.64
100 kPa, x1 = 0.7615 | – | 42.88 | 33.5 | 26.78 | 21.38 | 17.42 | 14.18
100 kPa, x1 = 0.8856 | – | 43.94 | 34.36 | 27.15 | 21.9 | 18.02 | 14.8
100 kPa, x2 = 0.014 | 57.68 | 43.78 | 34.06 | 27.11 | 21.93 | 18.01 | 14.99
100 kPa, x2 = 0.056 | 57.01 | 45.22 | 35.36 | 28.2 | 22.87 | 18.85 | 15.74
100 kPa, x2 = 0.059 | 59.98 | 46.12 | 35.96 | 28.59 | 23.13 | 19.03 | 15.85
100 kPa, x2 = 0.065 | 56.56 | 43.89 | 34.35 | 27.46 | 22.31 | 18.38 | 15.34
100 kPa, x2 = 0.095 | 58.76 | 45.02 | 35.26 | 28.08 | 22.77 | 18.73 | 15.62
100 kPa, x2 = 0.1 | 58.33 | 44.78 | 35.04 | 27.95 | 22.7 | 18.68 | 15.59
100 kPa, x2 = 0.127 | 58.17 | 44.43 | 34.74 | 27.73 | 22.52 | 18.53 | 15.47
100 kPa, x2 = 0.141 | 53 | 41.15 | 32.1 | 25.58 | 20.76 | 17.09 | 14.27
101 kPa, x1 = 0.02061 | – | – | 1.451 | 1.287 | 1.15 | 1.033 | 0.934
101 kPa, x1 = 0.03953 | – | – | 2.341 | 2.041 | 1.792 | 1.59 | 1.415
101 kPa, x1 = 0.0599 | – | – | 3.478 | 2.972 | 2.58 | 2.255 | 1.991
101 kPa, x1 = 0.07592 | – | – | 4.756 | 4.032 | 3.462 | 3 | 2.611
101 kPa, x1 = 0.1016 | – | – | 6.252 | 5.242 | 4.462 | 3.826 | 3.31
101 kPa, x1 = 0.1513 | – | – | 10.33 | 8.453 | 7.029 | 5.949 | 5.054
101 kPa, x1 = 0.2017 | – | – | 14.42 | 11.67 | 9.591 | 8.033 | 6.728
101 kPa, x1 = 0.2516 | – | – | 18.17 | 14.56 | 11.86 | 9.792 | 8.187
101 kPa, x1 = 0.3006 | – | – | 21.41 | 17.03 | 13.78 | 11.37 | 9.052
101 kPa, x1 = 0.4019 | – | – | 26.38 | 21.32 | 16.99 | 13.74 | 11.78
101 kPa, x1 = 0.5049 | – | – | 29.88 | 23.52 | 18.93 | 15.47 | 12.75
101 kPa, x1 = 0.597 | – | – | 31.86 | 25.09 | 20.18 | 16.44 | 13.63
101 kPa, x1 = 0.6977 | – | – | 33.27 | 26.31 | 21.16 | 17.27 | 14.27
101 kPa, x1 = 0.7514 | – | – | 33.84 | 26.7 | 21.5 | 17.58 | 14.5
101 kPa, x1 = 0.8072 | – | – | 34.28 | 27.15 | 21.87 | 17.89 | 14.76
101 kPa, x1 = 0.851 | – | – | 34.46 | 27.39 | 22.04 | 18.06 | 14.94
101 kPa, x1 = 0.9043 | – | – | 34.63 | 27.53 | 22.2 | 18.19 | 15.08
101 kPa, x1 = 0.956 | – | – | 34.9 | 27.7 | 22.43 | 18.33 | 15.2
101.33 kPa, x1 = 0.0003 | – | – | 0.784 | 0.71 | – | – | –
101.33 kPa, x1 = 0.0008 | – | – | 0.794 | 0.717 | – | – | –
101.33 kPa, x1 = 0.0012 | – | – | 0.804 | 0.726 | – | – | –
101.33 kPa, x1 = 0.0027 | – | – | 0.843 | 0.758 | – | – | –
101.33 kPa, x1 = 0.0051 | – | – | 0.909 | 0.812 | – | – | –
101.33 kPa, x1 = 0.0115 | – | – | 1.094 | 0.972 | – | – | –
101.33 kPa, x1 = 0.0339 | – | – | 1.958 | 1.688 | – | – | –
101.33 kPa, x1 = 0.0941 | – | – | 5.694 | 4.713 | – | – | –
101.33 kPa, x1 = 0.2972 | – | – | 21.42 | 16.7 | – | – | –
101.33 kPa, x1 = 0.3958 | – | – | 25.89 | 20.27 | – | – | –
101.33 kPa, x1 = 0.5753 | – | – | 30.52 | 23.92 | – | – | –
101.33 kPa, x1 = 0.6691 | – | – | 31.87 | 24.93 | – | – | –
101.33 kPa, x1 = 0.7737 | – | – | 33.08 | 26.26 | – | – | –
101.33 kPa, x1 = 0.8847 | – | – | 34.03 | 26.69 | – | – | –
101.33 kPa, x1 = 0.9219 | – | – | 34.27 | 26.79 | – | – | –
